According to ChEMBL document CHEMBL1131296 (J Med Chem, 1998):

Biological target: T1, Alpha-1A adrenergic receptor (Homo sapiens, UniProt P35348)
T1 sequence (P35348 whole entry): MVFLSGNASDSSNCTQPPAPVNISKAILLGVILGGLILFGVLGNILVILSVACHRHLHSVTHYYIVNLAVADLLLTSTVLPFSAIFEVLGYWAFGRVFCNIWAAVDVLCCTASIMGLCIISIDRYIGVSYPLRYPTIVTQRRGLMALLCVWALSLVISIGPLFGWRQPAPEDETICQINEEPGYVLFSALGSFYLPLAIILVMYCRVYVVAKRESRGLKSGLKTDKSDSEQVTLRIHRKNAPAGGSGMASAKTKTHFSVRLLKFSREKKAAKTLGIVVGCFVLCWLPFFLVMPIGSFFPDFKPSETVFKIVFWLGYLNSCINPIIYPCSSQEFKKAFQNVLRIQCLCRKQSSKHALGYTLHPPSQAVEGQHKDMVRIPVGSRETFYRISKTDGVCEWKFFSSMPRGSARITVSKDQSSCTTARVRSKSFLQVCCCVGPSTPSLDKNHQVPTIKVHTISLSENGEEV
Experiment: Binding affinity at human cloned Alpha-1A adrenergic receptor in chinese hamster ovary cells by [3H]-prazosin displacement.
Type: cell-based, CHO

- Ki: 437 nM
SMILES: COc1ccccc1N1CCN(CCN2C(=O)CC3(CCCC3)CC2=O)CC1 [BMY-7378]
